The target of assay [1] is rA2a adenosine receptor (Rattus norvegicus, UniProt P30543). Nature of the assay: Binding of [3H]CGS21680 to A2a (rat).
The target in assay [2] is rA1 adenosine receptor (Rattus norvegicus, UniProt P25099). Nature of the assay: Binding of [3H]PIA to A1 (rat).
Assay [3] has as its target hA2a adenosine receptor (Homo sapiens, UniProt P29274). The assay can be described thus: Binding of [3H]CGS21680 to A2a (human). The conditions noted are these: 10 μM.
Assay [4] deals with hA1 adenosine receptor (Homo sapiens, UniProt P30542). The assay can be described thus: Binding of [3H]PIA to A1 (human). The conditions noted are these: read-out: Ki hA1, Cheng-Prusoff.

The chains behind the UniProt entries cited, without tags or fusion partners.
UniProt P30543, whole entry: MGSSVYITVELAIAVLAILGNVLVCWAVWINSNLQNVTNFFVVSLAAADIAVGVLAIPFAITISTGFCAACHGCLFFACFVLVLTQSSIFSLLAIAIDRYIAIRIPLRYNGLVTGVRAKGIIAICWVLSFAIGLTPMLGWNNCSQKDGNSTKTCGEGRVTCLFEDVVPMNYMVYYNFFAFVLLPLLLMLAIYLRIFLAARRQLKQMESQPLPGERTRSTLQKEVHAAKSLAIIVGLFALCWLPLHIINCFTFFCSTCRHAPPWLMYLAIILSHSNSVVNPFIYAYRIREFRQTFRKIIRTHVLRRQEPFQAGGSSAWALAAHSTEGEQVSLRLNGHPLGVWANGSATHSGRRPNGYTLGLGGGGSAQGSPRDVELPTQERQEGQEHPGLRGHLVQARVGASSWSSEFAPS
UniProt P25099, whole entry: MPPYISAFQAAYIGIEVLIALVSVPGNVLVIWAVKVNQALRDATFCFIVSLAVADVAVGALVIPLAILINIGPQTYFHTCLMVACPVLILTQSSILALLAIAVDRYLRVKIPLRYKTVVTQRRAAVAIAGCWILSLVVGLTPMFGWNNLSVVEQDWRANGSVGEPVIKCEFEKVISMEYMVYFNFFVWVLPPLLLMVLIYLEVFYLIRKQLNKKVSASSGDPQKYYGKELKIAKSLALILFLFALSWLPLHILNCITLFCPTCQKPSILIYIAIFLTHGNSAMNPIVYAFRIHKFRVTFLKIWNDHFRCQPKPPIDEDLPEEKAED
UniProt P30542, whole entry: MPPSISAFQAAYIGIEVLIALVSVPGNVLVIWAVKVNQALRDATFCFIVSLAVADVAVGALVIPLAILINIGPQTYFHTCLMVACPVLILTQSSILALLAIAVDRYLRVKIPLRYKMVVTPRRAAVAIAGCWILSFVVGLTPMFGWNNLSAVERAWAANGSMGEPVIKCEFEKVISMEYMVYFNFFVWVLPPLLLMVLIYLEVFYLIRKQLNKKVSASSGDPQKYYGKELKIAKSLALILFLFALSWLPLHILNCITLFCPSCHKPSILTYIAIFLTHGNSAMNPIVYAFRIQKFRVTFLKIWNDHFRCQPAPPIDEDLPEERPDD

For orientation: Ki means a measure of affinity in units of concentration, obtained from inhibition or displacement. Turning to `CNC(=O)[C@H]1O[C@@H](n2cnc3c(NCc4cccc(I)c4)nc(Cl)nc32)C(O)[C@H]1O` (stereo partly shown) [CL-IB-MECA, N^6-(3-iodobenzyl)-2-chloro-5′-(N-methylcarbamoyl)adenosine, reference compound], the values for the Ki in assay [1] and in assay [2] were 470 nM and 820 nM, respectively.
As for `CNC(=O)[C@]1(n2cnc3c(NCc4cccc(I)c4)nc(Cl)nc32)SC[C@H](O)[C@@H]1O` [Compound 12, (2R,3S,4R)-2-[2-chloro-6-(3-iodobenzylamino)purin-9-yl)-3,4-dihydroxytetrahydrothiophene-2-carboxylic acid methyl amide], the “% Displacement hA2a” value in assay [3] worked out at 50%. Moreover, the inhibition constant (Ki) in assay [4] was 110 nM.

Source of the values: US7199127B2 (dated 2007).
